The record followed here is US20130184280A1, “SUBSTITUTED THIAZOLES AS VEGFR2 KINASE INHIBITORS” (TELIK, INC., priority 2011, published 2013).

Protein sequences, listed by entry. Tags and fused reporters are not part of them. Residues count along the entry.
UniProt P35968, 20-1356 limits assumed: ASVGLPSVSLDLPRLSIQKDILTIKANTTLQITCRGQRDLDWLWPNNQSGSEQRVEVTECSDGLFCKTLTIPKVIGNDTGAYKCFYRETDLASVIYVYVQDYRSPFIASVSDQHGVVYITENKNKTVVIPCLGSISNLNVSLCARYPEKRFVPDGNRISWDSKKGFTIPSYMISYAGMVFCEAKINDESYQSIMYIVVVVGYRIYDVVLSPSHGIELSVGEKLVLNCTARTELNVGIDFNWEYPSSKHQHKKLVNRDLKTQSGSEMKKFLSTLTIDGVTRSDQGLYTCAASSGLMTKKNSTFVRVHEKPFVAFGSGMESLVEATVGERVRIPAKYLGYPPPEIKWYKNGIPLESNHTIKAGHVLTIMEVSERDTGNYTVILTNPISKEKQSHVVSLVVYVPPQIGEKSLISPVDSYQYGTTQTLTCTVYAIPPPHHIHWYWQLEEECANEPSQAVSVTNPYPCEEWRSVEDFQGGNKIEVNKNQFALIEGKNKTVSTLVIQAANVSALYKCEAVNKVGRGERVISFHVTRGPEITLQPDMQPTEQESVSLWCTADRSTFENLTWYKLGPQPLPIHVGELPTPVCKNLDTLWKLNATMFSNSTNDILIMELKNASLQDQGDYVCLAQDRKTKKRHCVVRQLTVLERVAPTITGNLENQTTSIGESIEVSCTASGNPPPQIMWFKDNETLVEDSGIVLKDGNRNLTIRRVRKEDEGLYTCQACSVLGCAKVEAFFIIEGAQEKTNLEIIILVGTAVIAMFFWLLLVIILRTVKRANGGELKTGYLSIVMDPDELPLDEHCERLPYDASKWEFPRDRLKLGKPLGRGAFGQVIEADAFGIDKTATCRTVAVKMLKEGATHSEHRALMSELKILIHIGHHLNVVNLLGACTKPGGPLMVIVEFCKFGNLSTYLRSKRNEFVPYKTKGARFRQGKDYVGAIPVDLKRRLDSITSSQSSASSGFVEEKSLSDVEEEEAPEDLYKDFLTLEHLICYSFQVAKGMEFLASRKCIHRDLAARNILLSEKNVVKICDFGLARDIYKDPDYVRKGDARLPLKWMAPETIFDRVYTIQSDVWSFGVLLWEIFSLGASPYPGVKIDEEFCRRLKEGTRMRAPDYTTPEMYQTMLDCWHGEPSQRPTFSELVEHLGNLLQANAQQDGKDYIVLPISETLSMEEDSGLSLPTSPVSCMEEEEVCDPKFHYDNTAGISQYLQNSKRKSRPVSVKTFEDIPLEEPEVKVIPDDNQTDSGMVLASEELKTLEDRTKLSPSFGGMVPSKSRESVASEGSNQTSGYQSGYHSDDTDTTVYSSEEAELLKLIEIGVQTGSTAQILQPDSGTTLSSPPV

pIC50: −log10 of the molar value.

Series [1] concerns HCT116 (human colon carcinoma). Description: In Vitro Cytotoxicity Assay HCT116 (CellTiter-Glo). The following applies: read-out: Cytotoxicity HCT116; HCT116 cells, cultured three days. As to the method:
(§1) The cell lines HL60 (human promyelocytic leukemia) and HCT116 (human colon carcinoma) were obtained from the American Type Culture Collection, Manassas, Va., U.S.A. All products were used in accordance with manufacturer's directions. The cytotoxicity assays were conducted in triplicate, in each case with solvent control.
(§2) Log-phase cells were trypsinized, collected by centrifugation, and resuspended in a small volume of fresh medium, and the density of viable cells was determined following Trypan Blue staining Cells were diluted in fresh media, the test compounds (concentrations between 0.1 μM and 200 μM, dissolved in DMSO, 50 μL) added immediately after dilution to achieve a final DMSO concentration of 0.5%, then the suspensions added at 150 μL/well to 96-well plates, and incubated overnight to allow attachment in the case of adherent cells. The cells were cultured for three days (about three doubling times). The cells were then collected by centrifugation, and 100 μL of the culture supernatant was replaced by the CellTiter-Glo reagent. After incubation for 15 minutes at room temperature, the plate was read with a luminometer. […] The table gives cytotoxicity IC50s in μm.
(In general: In ATP-based viability assays light output follows the ATP content of the culture.)

Series [2] concerns the target VEGFR2 kinase (Homo sapiens, UniProt P35968). In words: In Vitro VEGFR2 Kinase Assay. The following applies: read-out: VEGFR2 IC50 (nM) (FP), CSKtide substrate, 60 minutes at room temperature. Here is the method: In Vitro VEGFR2 Kinase Assay
50 ng/well VEGFR2 kinase (from InVitrogen) was mixed in buffer (14.5 μL/well). To this were added, 0.5 μL of the compound of this invention at a concentration of 2.5% in DMSO. After incubatiuon for 5 minutes at room temperature, 5 μL of substrate (CSKtide, 400 nM) and 8 μL ATP were added. The mixture was incubated for 60 minutes at room temperature and 60 uL of binding reagent (beads) was added. After incubation overnight at room temperature, the plate was read with a LJL plate reader.

The test system of series [3] is HL60 (human promyelocytic leukemia). In words: In Vitro Cytotoxicity Assay HL60 (CellTiter-Glo). The following applies: read-out: Cytotoxicity HL 60; HL 60 cells, cultured three days. As to the method:
as §1, §2

Broadly, the IC50 is the point on the concentration scale where inhibition reaches its midpoint. Take `Nc1ncncc1-c1nc(-c2cccc(NC(=O)Nc3cc(Cl)cc(Cl)c3)c2)cs1`: the pIC50 in series [1] is 5.40. The 50% inhibitory concentration (IC50) in series [2] is 30 nM.
For `Cc1ccc(C(=O)Nc2cccc(-c3csc(-c4cncnc4N)n3)c2)cn1` the same measures were 5.70 and 200 nM.
For `Cc1ccc(CNC(=O)c2cccc(-c3csc(-c4cncnc4N)n3)c2)cc1` the same measures were 5.00 and 900 nM.
For `Nc1ncncc1-c1nc(-c2ccc(NC(=O)Nc3ccc(F)c(C(F)(F)F)c3)cc2)cs1`, in series [1], the pIC50 is 5.15.
As for `Nc1ncncc1-c1nc(-c2cccc(NC(=O)c3cccc(CN4CCCCC4)c3)c2)cs1`, the pIC50 is 6.00 in series [1] and 6.10 in series [3]. In addition, the IC50 in series [2] was determined as 500 nM.
On to `Nc1ncncc1-c1nc(-c2cccc(NC(=O)Nc3ccc([N+](=O)[O-])cc3)c2)cs1`, for which the IC50 in series [2] was 200 nM.
